# Data taken from PubChem BioAssay AID651719 (The Scripps Research Institute Molecular Screening Center, 2012).
# Amino acid sequences for entries named in this document (tags omitted). Residues count along the entry.
# UniProt O60755, 1-299 limits assumed: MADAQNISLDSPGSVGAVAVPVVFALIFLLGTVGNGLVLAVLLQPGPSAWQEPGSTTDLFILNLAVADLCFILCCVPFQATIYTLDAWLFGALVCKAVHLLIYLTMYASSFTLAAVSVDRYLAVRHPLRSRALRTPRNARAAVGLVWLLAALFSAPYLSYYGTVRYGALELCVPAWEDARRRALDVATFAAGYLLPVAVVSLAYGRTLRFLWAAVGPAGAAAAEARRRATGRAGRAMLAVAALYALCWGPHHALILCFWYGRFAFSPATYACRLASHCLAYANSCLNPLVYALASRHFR
# This is a selection; strong and weak results do not stand in their true shares. Activity calls are given as the source filed them.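 How the source made its calls: active means inhibition above the screen-wide average plus 3 SD (cut at about 13% in these data); inactive means the rest.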
# Biological target: Galanin receptor type 3 (Homo sapiens) (UniProt O60755)
# Assay: GalR3 antagonists in HEK293 cells, primary screen, cell-based, fluorescence readout (AID 651719);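 further: forskolin and galanin both at EC90 stimulate the cells; cAMP rise reported by CNG channel membrane potential dye signal; 0% = forskolin plus galanin with DMSO and 100% = forskolin alone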
# Settings: HEK293 GalR3-CNG cAMP membrane potential fluorescence; at 3 µM; stronger effect = higher value; galR3 body fused to GalR1 C-terminus
row,Structure (SMILES),inhibition
1,CCC(=O)N(c1ccccc1)C1(COC)CCN(CCc2cccs2)CC1,inactive: -2.02%
2,CCC(=O)N(c1ccccc1)C1(COC)CCN(CCn2nnn(CC)c2=O)CC1,inactive: -1.63%
